# Most compounds without a hit are left out; they make up all but 3.6% or so of the library.
# PI5P4K alpha inh – PI5P4K alpha (human) kinase inhibition; PI5P4Kalpha enzyme, ADP-Glo luminescence, 60 min; active compounds read low; hit rate 1.2% among 330,000; max response, %; P48426; active = max response of -50% or lower; inconclusive = between -30% and -50%; inactive = -30% or higher; note: value at the top dose of about 77 µM; % is set by controls: 0 for no effect and ±100 for the full control effect
#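 Quantitative HTS of the MLSMR library against PI5P4Kalpha with substrate. ATP added last at 5 microM final; room temperature, 60 minutes. Remaining ATP depleted, ADP converted and read as luminescence.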
# PLK1 PBD block – blocks phosphopeptide binding to human PLK1 polo-box domain. P53350. Plk1 PBD binding of FITC phosphopeptide, fluorescence polarization. Potency, µM, for the others: max response, negative = inhibition, actives largely listed as inhibitors. hit rate 2.8% among 360,000. AID 720504; note: potency is the fitted concentration of half-maximal effect; series mostly up to about 57 µM; % is set by controls: 0 for no effect and ±100 for the full control effect; nearly all actives have a fitted effect of over 65% in size
# Rango dissoc inh – prevents RanGTP from dissociating the Rango-importin beta complex; O95149+P62826; Biochemical FRET Rango-importin beta, RanGTP-induced dissociation; Potency, µM (doses to about 46.1 µM), for the others: at the highest dose activity change, negative = inhibition; hit rate 0.071% among 340,000; AID 540253; calls by dose curve; note: potency is the fitted concentration of half-maximal effect; % of control where 0% means no effect; nearly all actives have a fitted effect of over 45% in size
#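 Compounds sat 5 min at room temperature with 0.1 uM Rango biosensor plus 0.25 uM importin beta, then FRET pre-read. RanGTP-RCC1 (0.6 uM Ran, 2mM GTP, 0.2 uM RCC1) added for 45 min, and the CFP/YFP post-read measured blocked complex dissociation.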
# Rango-impB inh – inhibitors of Rango-importin beta complex formation; Q14974; Rango CFP/YFP FRET sensor + importin beta, 45 min; Potency, µM (series often up to 92.2 µM), inactives show at the top dose inhibition of complex formation; hit rate 0.031% among 340,000; AID 540263; calls by dose curve;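 note: potency is the fitted concentration of half-maximal effect; 0% = DMSO wells and 100% = buffer wells lacking importin beta; nearly all actives have a fitted effect of over 15% in size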
#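 Inhibition scored from the CFP 486 nm/YFP 530 nm FRET ratio 45 min after adding 0.125 microM importin beta to 50 nM Rango biosensor preincubated 5 min with compound (room temperature, PBS with DTT, Tween-20, BSA). No-importin wells as positive control.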
# VDR inh – inhibitors of human vitamin D receptor. P11473. VDR-SRC2-3 peptide fluorescence polarization, 2 h. Potency, µM, for the others: max response, negative = inhibition, usual class: inhibitors. hit rate 0.93% among 400,000. AID 504847; note: potency is the fitted concentration of half-maximal effect; % is set by controls: 0 for no effect and ±100 for the full control effect
#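 The screen uses fluorescence polarization to detect compounds that interfere with recruitment of the SRC2-3 coactivator peptide to VDR; plates are read after 2 h at room temperature.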
# GCN5L2 inh – GCN5L2 (KAT2A) acetyltransferase inhibition | GCN5L2 HAT assay, ThioGlo1 CoA-SH fluorescence | Potency, µM (titrated, usually from 58.9 µM), for the others: at the top dose activity change, negative = inhibition, actives largely listed as inhibitors | hit rate 0.21% among 390,000 | AID 504327; note: potency is the fitted concentration of half-maximal effect; % is set by controls: 0 for no effect and ±100 for the full control effect
#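 Preincubate 20nM GCN5L2 with compound 15 min, RT → add 50uM ThioGlo1 + 75uM H3(1-25) + 70uM acetyl-CoA → read fluorescence 0 and 20 min. Primary qHTS; fluorescent artifacts likely.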
# The depositor's hits bear a star; ? = inconclusive; . = not tested or not shown; ! = repeats disagree. Unless noted, calls come from the whole dose curve; as a rule, active = well fitted curve in the direction sought with a large enough effect; inconclusive = small, poorly fitted or top-dose-only effect, or another doubt; inactive = no such curve, though single readings can be large; an effect the other way counts as inactive or inconclusive.
# Short forms – A = PI5P4K alpha inh; B = PLK1 PBD block; C = Rango dissoc inh; D = Rango-impB inh; E = VDR inh; F = GCN5L2 inh
COc1ccc(CC(=O)NCC2CCCN(Cc3ccc(F)c(OC)c3)C2)cc1 (stereo unspecified)
  A: 0; B: -15%; C: 37%; D: -2%; E: -10%; F: -1%

Cc1ccc(NC(=O)C2C(c3ccccc3)C2(Cl)Cl)c(C)c1 (stereo unspecified)
  A: -15; B: 21µM*; C: 4%; D: 5%; E: ?; F: -9%

CCN(CC)S(=O)(=O)c1ccc(Cl)c(NC(=O)c2ccccc2C)c1
  A: 6; B: 21µM*; C: 9%; D: -3%; E: -19%; F: -1%

CCN(CC)S(=O)(=O)c1ccc(Cl)c(NC(=O)c2cc(Cl)cc(Cl)c2)c1
  A: -10; B: -9%; C: 31%; D: 0%; E: -3%; F: 1%

Cn1c(/N=C/c2c(O)ccc3ccccc23)nc2ccccc21
  A: .; B: 1.3µM*; C: -26%; D: ?; E: 35µM*; F: -7%

CCCn1c(/N=C/c2ccccc2O)nc2ccccc21
  A: 1; B: -5%; C: 30%; D: -5%; E: -4%; F: ?

Cc1ccc(OCC(=O)Nc2cc(C(=O)O)cc(C(=O)O)c2)cc1C
  A: -55*; B: 3µM*; C: 12%; D: 0%; E: 18µM*; F: -4%

CCOc1ccccc1NS(=O)(=O)c1c(-c2ccc(C)cc2)csc1C(=O)OC
  A: .; B: .; C: .; D: .; E: 15%; F: -11%

Cc1ccc(C(=O)N/C(=C\c2ccc(-c3cc(Cl)ccc3Cl)o2)C(=O)NCc2cccnc2)cc1
  A: -2; B: -7%; C: 10µM*; D: ?; E: -2%; F: -16%

O=C(Nc1cc(C(=O)Nc2ccc(S(=O)(=O)O)cc2S(=O)(=O)O)cc(C(=O)Nc2ccc(S(=O)(=O)O)cc2S(=O)(=O)O)c1)Nc1cc(C(=O)Nc2ccc(S(=O)(=O)O)cc2S(=O)(=O)O)cc(C(=O)Nc2ccc(S(=O)(=O)O)cc2S(=O)(=O)O)c1
  A: .; B: .; C: .; D: .; E: -8%; F: -20%

# Continuation.
# Short forms – A = PI5P4K alpha inh; B = PLK1 PBD block; C = Rango dissoc inh; D = Rango-impB inh; E = VDR inh; F = GCN5L2 inh
O=C(Nc1ccc(C(=O)Nc2ccc(C(=O)Nc3ccc(S(=O)(=O)O)c4cc(S(=O)(=O)O)cc(S(=O)(=O)O)c34)cc2)cc1)Nc1ccc(C(=O)Nc2ccc(C(=O)Nc3ccc(S(=O)(=O)O)c4cc(S(=O)(=O)O)cc(S(=O)(=O)O)c34)cc2)cc1
  A: .; B: .; C: .; D: .; E: 5.6µM*; F: 16µM*!

COc1ccc(NC(=O)C2CCN(S(=O)(=O)c3ccc4c(c3)CCCC(=O)N4)CC2)cc1OC
  A: .; B: .; C: .; D: .; E: 21%; F: 19%

COc1cccc(CNC(=O)CSC2=Nc3ccccc3C3=NC(C(C)C)C(=O)N23)c1 (stereo unspecified)
  A: .; B: .; C: .; D: .; E: 8%; F: -11%

Cc1cccc(-n2c(O)c(C=Nc3ccccc3)c3ccccc3c2=O)n1
  A: -16; B: 24µM*; C: -22%; D: ?; E: 32µM*; F: -6%

Cc1ccc(C)c(N2CCN(S(=O)(=O)c3c(C(=O)N4CCC(C)CC4)c(C)n(C)c3C)CC2)c1
  A: .; B: .; C: .; D: .; E: 8%; F: -2%

O=Cc1cn(CC(=O)N2CCCCC2)c2ccccc12
  A: 6; B: -12%; C: -7%; D: -3%; E: -20%; F: 1%

O=Cc1cn(CC(=O)N2CCCc3ccccc32)c2ccccc12
  A: -69*; B: 2.7µM*; C: 9%; D: 4%; E: -13%; F: -2%

O=C(Nc1cc(C(F)(F)F)ccc1N1CCOCC1)c1c(F)c(F)c(F)c(F)c1F
  A: 2; B: 30µM*; C: -9%; D: 1%; E: 7%; F: 1%

O=C(Nc1cc(C(F)(F)F)ccc1N1CCOCC1)c1ccccc1
  A: .; B: 0%; C: -12%; D: 5%; E: 3%; F: 2%

CCOC(=O)c1ccc(NC(=O)CC2C(=O)N(c3ccc(F)cc3)C(=O)N2Cc2cccnc2)cc1 (stereo unspecified)
  A: .; B: .; C: .; D: .; E: 3%; F: 4%

# (next part)
# Short forms – A = PI5P4K alpha inh; B = PLK1 PBD block; C = Rango dissoc inh; D = Rango-impB inh; E = VDR inh; F = GCN5L2 inh
O=C(NCc1ccc2c(c1)OCO2)C1CCCN(S(=O)(=O)c2cccc3nonc23)C1 (stereo unspecified)
  A: ?; B: 27µM*!; C: -10%; D: -5%; E: -6%; F: 1%

Cc1nn(CC(=O)NCc2ccc(N(C)C)cc2)c(=O)c2nn(-c3ccccc3)c(C)c12
  A: .; B: .; C: .; D: .; E: 14%; F: -7%

CCOc1ccc(CNC(=O)C2CCCN(c3nc4c(C)cc(C)cc4s3)C2)cc1 (stereo unspecified)
  A: .; B: .; C: .; D: .; E: ?; F: -9%

N=C1/C(=C/c2ccco2)C(=O)N=C2SC(CC(=O)N3CCCC3)=NN12
  A: -28; B: ?; C: -13%; D: -1%; E: -14%; F: -28%

O=C1N=C(N2CCCC2C(=O)O)S/C1=C\c1ccco1 (stereo unspecified)
  A: ?; B: 3.4µM*; C: -14%; D: ?; E: ?; F: -7%

Cc1ccc(S(=O)(=O)OCCc2ccccc2)cc1
  A: .; B: .; C: .; D: .; E: 9%; F: .

COc1cc(C)ccc1OCCOc1c(Cl)cc(Cl)cc1Cl
  A: 3; B: -4%; C: -9%; D: 0%; E: -1%; F: -3%

COc1cc(C)ccc1OCCOc1cc(C)ccc1Cl
  A: 1; B: 24µM*; C: -1%; D: 3%; E: -6%; F: ?

CCc1ccccc1OCCOc1ccc(C)cc1OC
  A: -26; B: 3µM*; C: 21%; D: -2%; E: -19%; F: -2%

COC(=O)c1ccccc1OCCCOc1ccc(C)cc1OC
  A: .; B: .; C: .; D: .; E: .; F: -7%

# (cont.)
# Short forms – A = PI5P4K alpha inh; B = PLK1 PBD block; C = Rango dissoc inh; D = Rango-impB inh; E = VDR inh; F = GCN5L2 inh
CCC(Oc1ccc(F)cc1)C(=O)Nc1c(C(=O)c2ccc(C)cc2)oc2ccccc12 (stereo unspecified)
  A: .; B: .; C: .; D: .; E: -18%; F: -4%

CCOc1ccc(Nc2nc(N)nc(CN(C)C3CCCCC3)n2)cc1
  A: 8; B: 5%; C: 1%; D: 58µM*; E: 1%; F: 1%

COc1ccc(Nc2nc(N)nc(COc3ccc(OC)cc3)n2)cc1
  A: 0; B: -6%; C: 3%; D: -4%; E: -13%; F: -6%

CCOc1ccc(Nc2cc(C)nc3nncn23)cc1
  A: .; B: .; C: .; D: .; E: 10%; F: 1%

CCOC(=O)c1sc(=S)n(-c2ccccc2)c1N
  A: 1; B: -17%; C: -1%; D: 3%; E: -7%; F: -8%

CCOc1ccc(NC(=O)NCc2cccnc2)cc1
  A: -8; B: 27µM*; C: 27%; D: -3%; E: -13%; F: ?

COc1ccc(CNC(=O)c2sc(=S)n(-c3ccccc3)c2N)cc1
  A: -19; B: 13µM*; C: 10%; D: -1%; E: 2%; F: -15%

CCOc1ccc(-n2c(N)c(C(=O)NCc3cccnc3)sc2=S)cc1
  A: 6; B: 27µM*; C: -2%; D: 3%; E: -25%; F: 1%

COC(=O)c1sc(=S)n(-c2cccc(Cl)c2)c1N
  A: .; B: 8.4µM*; C: 1%; D: -3%; E: ?; F: -21%

CCc1ccc(NC(=O)Cn2c(=O)n(CCc3ccccc3)c(=O)c3sc4ccccc4c32)cc1
  A: .; B: .; C: .; D: .; E: 7%; F: -3%

# Additional compounds.
# Short forms – A = PI5P4K alpha inh; B = PLK1 PBD block; C = Rango dissoc inh; D = Rango-impB inh; E = VDR inh; F = GCN5L2 inh
NS(=O)(=O)c1nn2cc(-c3ccccc3)nc2s1
  A: .; B: .; C: .; D: .; E: -18%; F: 0%

CCCCC[C@H](O)/C=C/[C@@H]1[C@H](C/C=C\CCCC(=O)O)[C@@H](O)C[C@H]1O
  A: .; B: .; C: .; D: .; E: 0%; F: 10%

CCOc1ccc(-n2c(N)c(C(=O)NCc3ccco3)sc2=S)cc1
  A: ?; B: 21µM*; C: 8%; D: -1%; E: ?; F: ?

CCOC(=O)c1cc(-c2ccc(F)cc2)n(CCC(=O)Nc2nc3ccc(OC)cc3s2)c1C
  A: .; B: .; C: .; D: .; E: -2%; F: -12%

# Arranged by count of non-hydrogen atoms (smallest number first): part of the list above.
# Short forms – A = PI5P4K alpha inh; B = PLK1 PBD block; C = Rango dissoc inh; D = Rango-impB inh; E = VDR inh; F = GCN5L2 inh
COC(=O)c1sc(=S)n(-c2cccc(Cl)c2)c1N
  A: .; B: 8.4µM*; C: 1%; D: -3%; E: ?; F: -21%

CCCCC[C@H](O)/C=C/[C@@H]1[C@H](C/C=C\CCCC(=O)O)[C@@H](O)C[C@H]1O
  A: .; B: .; C: .; D: .; E: 0%; F: 10%

CCOc1ccc(-n2c(N)c(C(=O)NCc3cccnc3)sc2=S)cc1
  A: 6; B: 27µM*; C: -2%; D: 3%; E: -25%; F: 1%

CCOC(=O)c1cc(-c2ccc(F)cc2)n(CCC(=O)Nc2nc3ccc(OC)cc3s2)c1C
  A: .; B: .; C: .; D: .; E: -2%; F: -12%

# Bioassay records deposited in PubChem BioAssay by National Center for Advancing Translational Sciences (NCATS).
